# Values of other authors in patent US7141170B2, “Halogenated solvent remediation” (North Wind, Inc., priority 2004, dated 2006).
# Details: Surfactant Concentration 1%; cited from earlier work
substance,measurement,value
Nonylphenol ethoxylate,PCE Solubilized,"1,300 mg/l"
